Values quoted from earlier work as cited in publication PMC9143003, “Neutrophil Immunomodulatory Activity of Farnesene, a Component of Artemisia dracunculus Essential Oils” (Pharmaceuticals, 2022).

Tested on: human neutrophils
Set-up: method as in PMID 27586050, PMID 25959257
Settings: previous analysis; cited from earlier work

## (E/Z)-β-ocimene
  Effect on human neutrophil [Ca^2+]i (in words): no effect
